The conditions of data set [1]: 24 h.
The conditions of data set [2]: female mice, gavage 160 mg/kg, 24 h, listed as [^14C]choline.
Where [3] appears, read: male rats, gavage 160 mg/kg, DMAE dose 0, listed as [^14C]choline, 160 mg/kg.
Setting [4] is: DMAE pre-treatment 500 mg/kg, 1 h prior.

Values joined by “and” are separate entries in the source; they are usually repeats but may differ in a detail not shown here. Identical values can stand only once. Like-named read-outs stand apart in the source and are kept apart here.

With `C[N+](C)(C)CCO` [choline, N,N,N-trimethylaminoethanol], the “% Dose Recovered, Feces” value in data set [1] (female rats, IV 16 mg/kg, DMAE dose 0) is 0.303 ± 0.132 % dose; in data set [1] (female rats, gavage 160 mg/kg, DMAE dose 0, listed as [^14C]choline, 160 mg/kg), 13 % dose and 12.9 ± 10.0 % dose; in data set [1] (female rats, gavage 160 mg/kg, DMAE pre-treatment 500 mg/kg, listed as [^14C]choline), 2.5 % dose and 2.52 ± 2.85 % dose; in data set [1] (male rats, IV 16 mg/kg, DMAE dose 0), 0.107 ± 0.052 % dose; in data set [1] (setting [3]) it was ~22 % dose and 21.5 ± 5.10 % dose; in data set [1] (male rats, gavage 160 mg/kg, DMAE pre-treatment 100 mg/kg, 1 h prior, listed as [^14C]choline), 21 % dose and 21.3 ± 13.8 % dose. Also, the “% Dose Recovered, Feces” value in data set [1] (male rats, gavage 160 mg/kg, three DMAE pre-treatments 100 mg/kg 48, 24 and 1 h prior) is 10.2 ± 10.2 % dose; in data set [2] (DMAE dose 0, 160 mg/kg) it was 3 % dose and 2.62 ± 3.34 % dose; in data set [2] (setting [4]) it was 11 % dose. In addition, the fecal excretion in data set [1] (female rats, gavage 160 mg/kg, no pre-treatment or 100 mg/kg DMAE pre-treatment) is given as 11–13%. The “% Dose Recovered, CO2” value in data set [1] (setting [3]) was roughly 13 % dose. Further, the “% Dose Recovered, Total Recovered” value in data set [1] (male rats, gavage 160 mg/kg, DMAE pre-treatment 100 mg/kg, 1 h prior) is 86.1 ± 6.20 % dose; in data set [1] (male rats, gavage 160 mg/kg, DMAE pre-treatment 500 mg/kg, 1 h prior), 87.1 ± 1.90 % dose; in data set [2] (DMAE dose 0, 160 mg/kg), 81 % dose; in data set [2] (setting [4]) it was 91 % dose and 90.8 ± 8.60 % dose.
